Results on one compound are retold here after patent EP0325571B1, “New amines, their use and preparation” (priority 1988, dated 1989).

The chains behind the UniProt entries cited, without tags or fusion partners.
UniProt P31389, whole entry: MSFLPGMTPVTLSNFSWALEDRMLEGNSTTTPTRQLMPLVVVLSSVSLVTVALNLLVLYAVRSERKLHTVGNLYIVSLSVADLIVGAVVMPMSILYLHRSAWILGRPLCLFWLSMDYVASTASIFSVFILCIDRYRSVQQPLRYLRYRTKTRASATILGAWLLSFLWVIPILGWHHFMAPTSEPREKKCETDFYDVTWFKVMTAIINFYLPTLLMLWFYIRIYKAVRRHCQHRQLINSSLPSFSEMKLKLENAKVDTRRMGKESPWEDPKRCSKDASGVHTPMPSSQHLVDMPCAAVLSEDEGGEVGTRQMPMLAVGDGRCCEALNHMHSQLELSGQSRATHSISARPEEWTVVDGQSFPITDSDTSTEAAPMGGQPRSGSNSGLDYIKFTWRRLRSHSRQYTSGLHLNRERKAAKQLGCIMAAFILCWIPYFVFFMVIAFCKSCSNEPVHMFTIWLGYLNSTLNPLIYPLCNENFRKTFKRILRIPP

Where only a bound is given, the exact number is not on record here.

For series [1], the system named is portal vein. Put plainly: Ca-antagonistic effect on isolated portal vein (spontaneous myogenic activity). The settings on record: read-out: Anti-Ca effect IC50; rat portal vein; 10 mM K^+-solution added; cumulative doses; tested form: HBr. From the text: (§1) b) Antagonistic effect to noradrenaline and calcium on the portal vein
(§2) Preparation of isolated portal vein from rat
(§3) Animals : Albino, male rats, weighing about 200 g.
(§4) The rat is killed by a blow on the neck and decapitated. The abdomen is opened, the vein is dissected free from fat, cut open longitudinally and mounted in an organ bath. Changes in isometric tension is registered by a force displacement transducer, connected to an amplifier and a writing oscillograph.
Ca - antagonistic effect on portal vein
10 mM K^+-solution is added to the Krebs buffer to stabilize the spontaneous myogenic activity of the vein. The amplitude of the muscle contractions is measued. The test substance is added to the bath in cumulative doses until total inhibition is obtained.

The test system of the next series is isolated urinary bladder. Put plainly: Anticholinergic activity on isolated urinary bladder (inhibition of carbachol-induced contraction of bladder strips). The settings on record: read-out: Antichol. effect IC50; guinea-pig bladder strips contracted with carbachol 3 x 10^-6M; 60 minutes incubation with antagonist; tested form: HBr. Also on record: species or system guinea-pigs. From the text:
a) Anticholinergic activity on isolated urinary bladder
Male guinea-pigs, weighing 250-350 g, were killed by a blow on the head and exsanguinated. The urinary bladders were quickly removed and placed in Na^+-Krebs, in which they were kept throughout the dissection procedure. The bladders were dissected free from adherent fat and connective tissue before they were cut open by an incision on each side from the base towards apex. The mucosa was carefully removed with a pair of scissors. Four strips, approximately 3-5 mm long were prepared by cutting in a parallel direction to the longitudinal muscle fibres, on each half of the bladder.
The bladder strips were immediately mounted vertically in 5 ml organ baths containing Na^+-Krebs solution aerated with carbogene gas to maintain the pH at about 7.4. The temperature, 37°C, was thermostatically controlled by a Lauda MS3 thermostatic circulator. The preparations were suspended between two hooks, one of which was connected to a Grass Instruments FT03 force transducer. The isomeric tension of the preparations was recorded by a Grass polygraph model 79D. The resting tension was applied to approximately 5 mN. […]
Initially each antagonist was tested in a concentration of 10-t1M, on. two bladder-strips from different guinea-pigs. […] The effect of the antagonists was calculated as per cent inhibition of the mean of the initial agonist-induced contractions. […]

The test system of the next series is mice. Put plainly: Acute toxicity in mice, i.v. bolus. It counts as in vivo. The note with it: tested form: HBr.
Series [2] relates to portal vein. Nature of the series: Noradrenaline antagonism on isolated portal vein. The settings on record: read-out: Anti-N.A. effect IC50; rat portal vein; noradrenaline 3 x 10-^7 M; 10 minutes incubation; tested form: HBr.
Description: as §1, §2, §3, §4
Noradrenaline - antagonism on portal vein
Doses: Noradrenaline 3 x 10-^7 M
The chosen doses give about 70% of maximal response. The agonist is added to the bath at 10-minutes intervals. When reproducible contractions are obtained a fixed concentration of the test substance is added to the bath. After an incubation period of 10 minutes noradrenaline is added. The next concentration of the test substance is added when the original response of the agonist is obtained.
The antagonistic effect of the substance is calculated as per cent inhibition of the mean response by three preceding doses of the agonist.

For another series, the target named is isolated ileum (Cavia porcellus, UniProt P31389). Put plainly: Histamine antagonism on isolated ileum. More on the design: species or system guinea pigs. The settings on record: read-out: Anti-HI effect IC50; guinea pig ileum; 5 x 10-^7 M of histamine; tested form: HBr. The method, then: c) Histamine-antagonism on isolated ileum
Preparation of isolated ileum from guinea pigs
The guinea pig is killed by a blow on the neck and decapitated. The abdomen is opened and about 2 cm of the ileum is cut off about 15 cm above the ileocaecal junction. The piece of ileum is washed with buffer and mounted in an organ bath. Changes in isometric tension is recorded by a force displacement transducer, connected to an amplifier and a writing oscillograph.
Dose : 5 x 10-^7 M of histamine.
The chosen dose of histamine gives about 70% of maximal response. The agonist is added to the bath at 3-minutes intervals. When reproducible contractions are obtained a fixed concentration of the test substance is added to the bath. After an incubation period of 2-10 minutes a new contraction is induced by histamine. The next concentration of the test substance is added when the original response of the agonist is obtained.
The agonistic effect of the test substance is calculated as per cent inhibition of the mean response by three preceding doses of histamine.

Regarding `CN(CCC(c1ccccc1)c1ccc(O)cc1O)C(C)(C)C` (stereo not drawn), the IC50 (commonly the concentration needed to halve the response being measured) in the series with portal vein [1] turned out to be 65 µM; with isolated urinary bladder, 0.2 µM; in the series with portal vein [2], 30 µM; on isolated ileum it was 13 µM. Further, in the series with mice (LD50-interval: between highest dose where 4 mice survived and lowest dose where 4 mice died within 5 minutes after i.v. bolus), the “Acute toxicity i.v.” value is greater than 20 mg/kg. This compound registered a Lethal dose in the series with mice (lowest dose where 4 mice of 4 tested died within 5 minutes after i.v. bolus) greater than 20 mg/kg.
